According to patent publication US20190241661A1:

Target: combination of trastuzumab and pertuzumab (Homo sapiens (Human)) [IgG part: P0DOX5]
Test: flow cytometry; BT-474 cells with 10 µg/mL antibody, then 10 µg/mL C1q, PE-labeled anti-C1q antibody

“complement factor C1q (Sigma Aldrich, Cat. No. C1740) (from UniProt P02745 23-245; P02746 28-253; P02747 29-245)” was tested. Which PE-signal (geomean) did it give?
The PE-signal (geomean) was 2160 geomean PE.
